In ChEMBL document CHEMBL1146163 (Bioorg Med Chem Lett, 2006) one finds EC50 and IC50 data, which are given here for 1 compound.

In general, EC50 refers to the concentration at which the effect is half-maximal. The low end stands for higher potency in that assay, the high end for lower potency in that assay. As usually defined, the IC50 is the point on the concentration scale where inhibition reaches its midpoint. A lower IC50 goes with greater potency in that assay.

This test concerns the target T1, Peroxisome proliferator-activated receptor alpha (Homo sapiens, UniProt Q07869).
T1 sequence (Q07869 whole entry): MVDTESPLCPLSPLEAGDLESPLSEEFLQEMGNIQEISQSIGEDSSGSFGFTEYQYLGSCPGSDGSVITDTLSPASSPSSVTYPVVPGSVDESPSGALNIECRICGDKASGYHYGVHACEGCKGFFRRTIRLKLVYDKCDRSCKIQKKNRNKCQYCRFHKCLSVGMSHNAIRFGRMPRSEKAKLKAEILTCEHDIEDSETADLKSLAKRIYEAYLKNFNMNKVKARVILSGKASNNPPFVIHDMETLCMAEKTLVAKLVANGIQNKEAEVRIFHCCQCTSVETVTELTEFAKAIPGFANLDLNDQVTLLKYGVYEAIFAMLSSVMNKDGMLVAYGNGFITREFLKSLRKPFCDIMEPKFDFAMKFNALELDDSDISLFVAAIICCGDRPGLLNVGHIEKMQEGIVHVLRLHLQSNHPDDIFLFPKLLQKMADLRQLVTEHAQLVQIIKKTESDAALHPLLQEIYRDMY
As to the kind of experiment: Displacement of tritium labeled ligand from human PPARalpha by SPA assay.

`Cc1oc(-c2ccccc2)nc1CCOc1ccc(C[C@H](Nc2ccccc2C(=O)c2ccccc2)C(=O)O)cc1` [FARGLITAZAR]: the EC50 was found to be 345 nM and the IC50 came out at 1220 nM.
